# Test results reported in PMC6445226, “Kinetic study on the inhibition of xanthine oxidase by acylated derivatives of flavonoids synthesised enzymatically” (Journal of Enzyme Inhibition and Medicinal Chemistry, 2017).
# Test: Partition coefficient determination in octanol/water (k)
# Type: physicochemical
# Settings: octan-1-ol/water, 50 μM sample, UHPLC-MS; SD <0.01
# Procedure: The partition coefficients of the untreated flavonoids in octanol/water (k) were analysed to determine their degrees of lipophilicity. In test tubes, 2.0 ml of a solution of the sample with a concentration of 50 μM were added to 2.0 ml of octanol saturated with water. The mixture was shaken for 1 min and then centrifuged for 15 min at 3000 rpm. […] The partition coefficient was obtained using the equation: k=Co/Ca×r; where Co = test compound concentration in octanol, Ca = test compound concentration in aqueous solution, r = ratio of the volumes of the oily and the aqueous phases.
row,Substance,Partition coefficient (k)
1,Rutin decanoate,0.95
2,Naringin octanoate,0.86
